For the series the following is noted: mouse, human, pH 7.4.

For `c1ccc2c(-c3cnn4cc(-c5ccc(N6CCNCC6)nc5)cnc34)ccnc2c1` [compound 1, 4-(6-(6-(piperazin-1-yl)pyridin-3-yl)pyrazolo[1,5-a]pyrimidin-3-yl)quinoline], the “cyanide adducts (reactive intermediate trapping with KCN)” value was “a cyanide adduct, M432, was observed in both species” and the “major metabolism in the presence of liver cytosol (aldehyde oxidase-mediated oxidation)” value was “extensively metabolized to an oxidized metabolite, M423c”.
